The record followed here is patent publication US20230321246A1, “HIGH-STRENGTH ORAL TAXANE COMPOSITIONS AND METHODS” (ATHENEX HK INNOVATIVE LIMITED, priority 2017, published 2023).

A short description of the series: in vivo. To be noted: male, Beagle, dog, iv, 2 mg/kg.

With `CC(=O)O[C@H]1C(=O)[C@@]2(C)[C@H]([C@H](OC(=O)c3ccccc3)[C@]3(O)C[C@H](OC(=O)[C@H](O)[C@@H](NC(=O)c4ccccc4)c4ccccc4)C(C)=C1C3(C)C)[C@]1(OC(C)=O)CO[C@@H]1C[C@@H]2O` [Paclitaxel, paclitaxel], the half-life (commonly the time needed for the level to fall by half in the phase considered) was 8.7 h.
